# Values of other authors as cited in PubChem BioAssay AID1811 (Shanghai Institute of Organic Chemistry, 2009).
# This is one part of the list. Activity calls are given as the source filed them. Unless stated, no cut-off for active and inactive is given here.
# System: ribonuclease a
# Assay: PubChem AID 1811
# Conditions: PDB complex binding affinities from literature
smiles,measurement,value
O=c1ccn([C@H]2C[C@H](OP(=O)(O)O)[C@@H](CO)O2)c(=O)[nH]1,outcome,active
